Source: article PMC7611940, “A Conformation Selective Mode of Inhibiting SRC Improves Drug Efficacy and Tolerability” (Cancer Research, 2021)

By UniProt entry, the sequences of proteins in these tests, tags left out. Where a name states a change or a piece, a line headed by the entry shows the natural chain unless it says otherwise.
UniProt Q15746, whole entry: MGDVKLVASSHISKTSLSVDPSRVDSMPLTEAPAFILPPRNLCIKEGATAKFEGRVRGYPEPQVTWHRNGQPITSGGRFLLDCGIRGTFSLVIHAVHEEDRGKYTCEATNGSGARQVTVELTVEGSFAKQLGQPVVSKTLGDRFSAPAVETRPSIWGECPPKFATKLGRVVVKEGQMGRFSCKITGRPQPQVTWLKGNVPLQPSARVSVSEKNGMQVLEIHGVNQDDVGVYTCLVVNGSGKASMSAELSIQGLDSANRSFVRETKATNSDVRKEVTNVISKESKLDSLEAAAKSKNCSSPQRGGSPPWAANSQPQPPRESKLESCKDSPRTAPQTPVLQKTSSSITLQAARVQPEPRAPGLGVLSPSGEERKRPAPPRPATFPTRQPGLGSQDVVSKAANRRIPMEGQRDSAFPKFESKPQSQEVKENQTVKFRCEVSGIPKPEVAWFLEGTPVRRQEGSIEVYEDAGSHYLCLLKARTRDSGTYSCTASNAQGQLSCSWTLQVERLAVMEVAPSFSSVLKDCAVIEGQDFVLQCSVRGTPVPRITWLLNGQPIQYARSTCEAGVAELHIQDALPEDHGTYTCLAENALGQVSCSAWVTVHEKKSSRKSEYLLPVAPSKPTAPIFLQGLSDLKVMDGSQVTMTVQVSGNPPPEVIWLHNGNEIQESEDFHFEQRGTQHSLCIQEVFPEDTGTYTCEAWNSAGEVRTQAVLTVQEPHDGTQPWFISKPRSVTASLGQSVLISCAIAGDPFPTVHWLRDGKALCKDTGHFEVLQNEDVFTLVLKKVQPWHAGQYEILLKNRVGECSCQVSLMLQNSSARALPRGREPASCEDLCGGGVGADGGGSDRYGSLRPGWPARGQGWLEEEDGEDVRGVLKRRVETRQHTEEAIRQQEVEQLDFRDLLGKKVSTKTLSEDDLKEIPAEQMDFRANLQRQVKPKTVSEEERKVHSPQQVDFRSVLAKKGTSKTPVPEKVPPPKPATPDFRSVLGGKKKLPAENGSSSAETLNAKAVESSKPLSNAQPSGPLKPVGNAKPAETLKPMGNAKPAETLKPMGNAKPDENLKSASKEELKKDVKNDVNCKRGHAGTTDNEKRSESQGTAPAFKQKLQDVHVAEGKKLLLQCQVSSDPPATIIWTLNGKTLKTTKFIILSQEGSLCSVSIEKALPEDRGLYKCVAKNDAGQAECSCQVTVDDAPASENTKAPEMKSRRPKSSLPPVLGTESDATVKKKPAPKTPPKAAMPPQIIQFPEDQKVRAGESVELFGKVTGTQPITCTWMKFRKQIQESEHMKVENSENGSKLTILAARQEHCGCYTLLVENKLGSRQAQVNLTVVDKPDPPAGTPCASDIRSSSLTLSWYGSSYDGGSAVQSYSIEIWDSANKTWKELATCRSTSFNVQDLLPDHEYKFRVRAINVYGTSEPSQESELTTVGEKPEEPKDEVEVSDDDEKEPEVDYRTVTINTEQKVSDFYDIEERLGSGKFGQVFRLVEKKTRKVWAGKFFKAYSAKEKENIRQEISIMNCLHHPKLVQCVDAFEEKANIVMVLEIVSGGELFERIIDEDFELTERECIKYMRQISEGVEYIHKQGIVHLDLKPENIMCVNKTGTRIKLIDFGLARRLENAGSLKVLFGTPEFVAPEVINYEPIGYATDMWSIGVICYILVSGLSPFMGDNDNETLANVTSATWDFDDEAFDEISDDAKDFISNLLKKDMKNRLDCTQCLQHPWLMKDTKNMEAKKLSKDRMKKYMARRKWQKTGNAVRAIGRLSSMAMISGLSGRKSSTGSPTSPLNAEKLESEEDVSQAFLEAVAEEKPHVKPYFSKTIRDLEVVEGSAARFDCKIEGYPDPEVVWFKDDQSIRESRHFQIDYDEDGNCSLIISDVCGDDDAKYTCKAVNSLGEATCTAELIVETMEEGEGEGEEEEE
UniProt O96013: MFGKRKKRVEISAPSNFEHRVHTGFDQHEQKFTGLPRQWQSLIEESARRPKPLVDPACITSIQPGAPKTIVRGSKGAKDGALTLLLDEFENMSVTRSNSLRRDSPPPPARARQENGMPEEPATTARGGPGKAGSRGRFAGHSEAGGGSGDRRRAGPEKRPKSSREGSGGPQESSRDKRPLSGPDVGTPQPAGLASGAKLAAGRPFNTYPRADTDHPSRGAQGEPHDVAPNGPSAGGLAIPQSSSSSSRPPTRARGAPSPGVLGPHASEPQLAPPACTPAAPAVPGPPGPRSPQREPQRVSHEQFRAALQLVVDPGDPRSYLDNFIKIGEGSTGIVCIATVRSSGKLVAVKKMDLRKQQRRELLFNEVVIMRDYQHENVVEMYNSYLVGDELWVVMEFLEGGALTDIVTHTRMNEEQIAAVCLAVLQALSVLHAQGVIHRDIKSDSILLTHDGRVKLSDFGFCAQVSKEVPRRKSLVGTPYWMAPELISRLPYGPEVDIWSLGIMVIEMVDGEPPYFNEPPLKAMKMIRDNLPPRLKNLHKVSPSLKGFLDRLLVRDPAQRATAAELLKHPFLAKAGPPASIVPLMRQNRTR
UniProt O15075: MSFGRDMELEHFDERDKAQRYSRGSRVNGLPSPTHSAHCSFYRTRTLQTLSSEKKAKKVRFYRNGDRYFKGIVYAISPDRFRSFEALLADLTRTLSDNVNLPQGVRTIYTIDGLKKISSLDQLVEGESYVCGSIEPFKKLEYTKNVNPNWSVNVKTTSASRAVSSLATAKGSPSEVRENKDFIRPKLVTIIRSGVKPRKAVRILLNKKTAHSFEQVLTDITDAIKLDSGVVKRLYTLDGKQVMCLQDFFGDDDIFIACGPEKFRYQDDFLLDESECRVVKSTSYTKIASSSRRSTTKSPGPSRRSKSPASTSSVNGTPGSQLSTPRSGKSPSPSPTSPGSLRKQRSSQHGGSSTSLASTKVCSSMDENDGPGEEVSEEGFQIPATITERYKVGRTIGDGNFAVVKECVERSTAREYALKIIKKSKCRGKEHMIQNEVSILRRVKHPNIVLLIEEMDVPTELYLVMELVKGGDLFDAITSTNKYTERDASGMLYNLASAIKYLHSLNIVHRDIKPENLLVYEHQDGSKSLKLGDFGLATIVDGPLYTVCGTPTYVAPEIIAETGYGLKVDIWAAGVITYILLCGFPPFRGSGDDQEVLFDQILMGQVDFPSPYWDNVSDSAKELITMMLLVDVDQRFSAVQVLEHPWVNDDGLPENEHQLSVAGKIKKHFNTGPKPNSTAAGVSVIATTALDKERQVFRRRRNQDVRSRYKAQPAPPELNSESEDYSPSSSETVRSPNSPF
UniProt Q12866: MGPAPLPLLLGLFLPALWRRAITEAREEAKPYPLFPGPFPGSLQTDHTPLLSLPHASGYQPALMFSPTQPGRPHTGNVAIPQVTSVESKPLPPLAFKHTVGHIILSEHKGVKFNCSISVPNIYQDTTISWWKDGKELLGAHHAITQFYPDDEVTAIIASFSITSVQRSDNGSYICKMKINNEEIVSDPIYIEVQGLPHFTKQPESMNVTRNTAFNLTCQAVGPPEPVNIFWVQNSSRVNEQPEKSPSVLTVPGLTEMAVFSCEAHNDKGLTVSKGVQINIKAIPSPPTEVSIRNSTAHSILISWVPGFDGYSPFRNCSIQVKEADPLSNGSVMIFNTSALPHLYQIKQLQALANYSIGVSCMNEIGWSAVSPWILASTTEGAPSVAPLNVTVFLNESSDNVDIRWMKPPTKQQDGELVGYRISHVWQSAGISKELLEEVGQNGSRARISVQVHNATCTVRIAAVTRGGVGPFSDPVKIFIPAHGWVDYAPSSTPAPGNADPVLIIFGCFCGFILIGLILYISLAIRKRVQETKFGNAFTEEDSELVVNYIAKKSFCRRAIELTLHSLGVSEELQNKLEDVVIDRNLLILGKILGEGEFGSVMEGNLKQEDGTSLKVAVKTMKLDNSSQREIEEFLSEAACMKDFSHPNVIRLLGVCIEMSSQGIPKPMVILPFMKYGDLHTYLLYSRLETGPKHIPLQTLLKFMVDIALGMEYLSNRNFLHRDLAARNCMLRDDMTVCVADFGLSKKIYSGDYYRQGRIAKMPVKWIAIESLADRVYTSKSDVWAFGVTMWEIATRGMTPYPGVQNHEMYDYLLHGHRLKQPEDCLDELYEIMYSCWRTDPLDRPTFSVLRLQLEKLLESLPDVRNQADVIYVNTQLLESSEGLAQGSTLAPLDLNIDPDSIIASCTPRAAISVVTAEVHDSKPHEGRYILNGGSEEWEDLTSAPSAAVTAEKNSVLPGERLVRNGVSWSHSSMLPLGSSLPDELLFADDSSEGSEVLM
UniProt P34947, whole entry: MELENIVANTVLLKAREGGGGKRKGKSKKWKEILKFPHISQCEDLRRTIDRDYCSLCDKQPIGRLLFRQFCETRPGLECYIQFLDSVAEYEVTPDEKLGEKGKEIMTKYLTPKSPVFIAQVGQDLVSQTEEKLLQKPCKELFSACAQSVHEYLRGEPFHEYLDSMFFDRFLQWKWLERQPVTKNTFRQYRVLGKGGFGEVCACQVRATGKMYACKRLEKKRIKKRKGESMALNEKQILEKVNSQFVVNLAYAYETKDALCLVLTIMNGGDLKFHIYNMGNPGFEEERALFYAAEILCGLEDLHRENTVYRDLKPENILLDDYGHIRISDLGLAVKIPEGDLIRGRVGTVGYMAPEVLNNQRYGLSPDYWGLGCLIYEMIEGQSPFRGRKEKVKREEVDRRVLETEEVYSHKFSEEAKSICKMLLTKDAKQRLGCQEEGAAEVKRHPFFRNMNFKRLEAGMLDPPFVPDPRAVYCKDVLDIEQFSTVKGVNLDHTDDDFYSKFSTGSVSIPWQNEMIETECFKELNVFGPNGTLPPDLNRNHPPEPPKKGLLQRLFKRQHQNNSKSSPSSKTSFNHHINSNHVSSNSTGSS
UniProt Q96PN8: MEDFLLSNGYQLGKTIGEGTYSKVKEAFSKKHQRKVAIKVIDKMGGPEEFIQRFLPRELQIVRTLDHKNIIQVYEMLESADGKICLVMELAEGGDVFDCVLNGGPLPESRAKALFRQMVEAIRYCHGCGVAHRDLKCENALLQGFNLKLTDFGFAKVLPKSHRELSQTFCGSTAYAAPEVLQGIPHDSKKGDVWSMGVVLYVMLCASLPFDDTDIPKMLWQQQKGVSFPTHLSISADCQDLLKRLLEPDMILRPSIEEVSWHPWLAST
UniProt Q16539, whole entry: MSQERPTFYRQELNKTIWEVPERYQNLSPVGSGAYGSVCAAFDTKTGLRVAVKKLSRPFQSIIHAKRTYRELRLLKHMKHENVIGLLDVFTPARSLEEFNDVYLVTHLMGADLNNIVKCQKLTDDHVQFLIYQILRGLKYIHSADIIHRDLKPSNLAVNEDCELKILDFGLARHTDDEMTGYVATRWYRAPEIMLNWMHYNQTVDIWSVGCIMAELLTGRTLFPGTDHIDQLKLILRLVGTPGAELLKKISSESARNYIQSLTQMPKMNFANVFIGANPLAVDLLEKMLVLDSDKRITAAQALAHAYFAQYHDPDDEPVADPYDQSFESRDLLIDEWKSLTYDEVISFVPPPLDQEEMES
UniProt Q14680: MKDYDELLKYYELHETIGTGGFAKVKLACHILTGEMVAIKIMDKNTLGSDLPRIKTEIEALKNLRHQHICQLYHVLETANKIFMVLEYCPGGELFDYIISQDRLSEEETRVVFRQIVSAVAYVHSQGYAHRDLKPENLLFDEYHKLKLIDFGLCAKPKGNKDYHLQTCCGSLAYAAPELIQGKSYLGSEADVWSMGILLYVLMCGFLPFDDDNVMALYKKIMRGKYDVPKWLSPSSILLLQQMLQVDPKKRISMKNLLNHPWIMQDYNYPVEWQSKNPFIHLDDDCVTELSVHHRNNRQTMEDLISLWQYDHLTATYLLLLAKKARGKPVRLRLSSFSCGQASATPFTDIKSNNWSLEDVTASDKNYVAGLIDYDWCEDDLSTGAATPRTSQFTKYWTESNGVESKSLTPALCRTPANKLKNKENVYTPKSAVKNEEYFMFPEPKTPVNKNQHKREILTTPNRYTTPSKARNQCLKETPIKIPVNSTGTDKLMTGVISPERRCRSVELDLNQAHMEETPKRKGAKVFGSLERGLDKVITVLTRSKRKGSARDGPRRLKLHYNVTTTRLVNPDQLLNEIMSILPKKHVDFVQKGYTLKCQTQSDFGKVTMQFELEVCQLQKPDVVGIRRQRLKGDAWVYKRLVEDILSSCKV
UniProt P11802: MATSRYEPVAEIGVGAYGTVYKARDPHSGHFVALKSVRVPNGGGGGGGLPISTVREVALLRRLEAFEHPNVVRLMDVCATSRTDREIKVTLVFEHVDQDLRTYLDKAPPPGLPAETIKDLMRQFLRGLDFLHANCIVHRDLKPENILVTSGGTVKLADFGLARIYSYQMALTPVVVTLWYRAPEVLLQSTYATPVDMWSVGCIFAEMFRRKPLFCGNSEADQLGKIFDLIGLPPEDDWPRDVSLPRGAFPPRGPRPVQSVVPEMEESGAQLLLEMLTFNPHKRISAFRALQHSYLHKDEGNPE

Assays:
Test in all cases: biochemical
Details in all cases: read-out: % remaining activity
[1] = target: T1, CHK2 (Homo sapiens, UniProt O96017)
T1 construct: gene CHEK2

[2] = target: PKN1 (Homo sapiens, UniProt Q16512)
[3] = target: DDR1 (Homo sapiens, UniProt Q08345)
[4] = target: SRPK1 (Homo sapiens, UniProt Q96SB4)
[5] = target: T2, MLCK (Homo sapiens, UniProt Q15746)
T2 construct: gene MYLK

[6] = target: SRMS (Homo sapiens, UniProt Q9H3Y6)
[7] = target: T3, CK1g3 (Homo sapiens, UniProt Q9Y6M4)
T3 construct: gene CSNK1G3

[8] = target: TSSK2 (Homo sapiens, UniProt Q96PF2)
[9] = target: PAK4 (Homo sapiens, UniProt O96013)
[10] = target: T4, DCAMKL1 (Homo sapiens, UniProt O15075)
T4 construct: gene DCLK1

[11] = target: TGFBR2 (Homo sapiens, UniProt P37173)
[12] = target: T5, PKCg (Homo sapiens, UniProt P05129)
T5 construct: gene PRKCG

[13] = target: CLK2 (Homo sapiens, UniProt P49760)
[14] = target: LATS1 (Homo sapiens, UniProt O95835)
[15] = target: T6, MER (Homo sapiens, UniProt Q12866)
T6 construct: gene MERTK

[16] = target: GRK5 (Homo sapiens, UniProt P34947)
[17] = target: LIMK2 (Homo sapiens, UniProt P53671)
[18] = target: EPHA8 (Homo sapiens, UniProt P29322)
[19] = target: EPHA7 (Homo sapiens, UniProt Q15375)
[20] = target: TSSK3 (Homo sapiens, UniProt Q96PN8)
[21] = target: T7, RSK2 (Homo sapiens, UniProt P51812)
T7 construct: gene RPS6KA3

[22] = target: T8, p38-alpha (Homo sapiens, UniProt Q16539)
T8 construct: gene MAPK14

[23] = target: MAP2K6 (Homo sapiens, UniProt P52564)
[24] = target: BRAF (Homo sapiens, UniProt P15056)
[25] = target: T9, MLK3 (Homo sapiens, UniProt Q16584)
T9 construct: gene MAP3K11

[26] = target: EPHA6 (Homo sapiens, UniProt Q9UF33)
[27] = target: T10, PKG1a (Homo sapiens, UniProt Q13976)
T10 construct: gene PRKG1

[28] = target: MELK (Homo sapiens, UniProt Q14680)
[29] = target: SIK1 (Homo sapiens, UniProt P57059)
[30] = target: T11, PKCzeta (Homo sapiens, UniProt Q05513)
T11 construct: gene PRKCZ

[31] = target: T12, FAK (Homo sapiens, UniProt Q05397)
T12 construct: gene PTK2

[32] = target: EPHA2 (Homo sapiens, UniProt P29317)
[33] = target: ROS1 (Homo sapiens, UniProt P08922)
[34] = target: CDK4/cyclin D1 (Homo sapiens, UniProt P11802)
[35] = target: T13, ACK1 (Homo sapiens, UniProt Q07912)
T13 construct: gene TNK2

[36] = target: PLK1 (Homo sapiens, UniProt P53350)

Question: How did the remaining activity at 1 µM [1] turn out when COc1cc(-c2nn(CCN3CCC(N(C)C)CC3)c3ncnc(N)c23)ccc1NC(=O)OC(C)(C)C [eCF506] was run?
Answer: The remaining activity at 1 µM was 98.9%.

Question: And the remaining activity at 1 µM [2]?
Answer: Its remaining activity at 1 µM is 92.1%.

Question: What about the remaining activity at 1 µM [3] of the same molecule?
Answer: Its remaining activity at 1 µM is 79.6%.

Question: What about the remaining activity at 1 µM [4] of the same molecule?
Answer: Its remaining activity at 1 µM is 93.3%.

Question: And the remaining activity at 1 µM [5]?
Answer: Its remaining activity at 1 µM is 110%.

Question: And the remaining activity at 1 µM [6]?
Answer: Its remaining activity at 1 µM is 46.2%.

Question: What about the remaining activity at 1 µM [7] of the same molecule?
Answer: The remaining activity at 1 µM was 98.2%.

Question: And the remaining activity at 1 µM [8]?
Answer: The remaining activity at 1 µM was 123%.

Question: And the remaining activity at 1 µM [9]?
Answer: Its remaining activity at 1 µM is 107%.

Question: What about the remaining activity at 1 µM [10] of the same molecule?
Answer: The remaining activity at 1 µM was 103%.

Question: And the remaining activity at 1 µM [11]?
Answer: Its remaining activity at 1 µM is 104%.

Question: What about the remaining activity at 1 µM [12] of the same molecule?
Answer: Its remaining activity at 1 µM is 96.7%.

Question: And the remaining activity at 1 µM [13]?
Answer: The remaining activity at 1 µM was 92.1%.

Question: And the remaining activity at 1 µM [14]?
Answer: Its remaining activity at 1 µM is 102%.

Question: And the remaining activity at 1 µM [15]?
Answer: Its remaining activity at 1 µM is 30.1%.

Question: And the remaining activity at 1 µM [16]?
Answer: The remaining activity at 1 µM was 102%.

Question: And the remaining activity at 1 µM [17]?
Answer: Its remaining activity at 1 µM is 30%.

Question: And the remaining activity at 1 µM [18]?
Answer: The remaining activity at 1 µM was 95.6%.

Question: And the remaining activity at 1 µM [19]?
Answer: Its remaining activity at 1 µM is 98.1%.

Question: And the remaining activity at 1 µM [20]?
Answer: The remaining activity at 1 µM was 112%.

Question: And the remaining activity at 1 µM [21]?
Answer: The remaining activity at 1 µM was 97.1%.

Question: What about the remaining activity at 1 µM [22] of the same molecule?
Answer: The remaining activity at 1 µM was 97.5%.

Question: What about the remaining activity at 1 µM [23] of the same molecule?
Answer: The remaining activity at 1 µM was 106%.

Question: And the remaining activity at 1 µM [24]?
Answer: The remaining activity at 1 µM was 35.5%.

Question: And the remaining activity at 1 µM [25]?
Answer: The remaining activity at 1 µM was 100%.

Question: What about the remaining activity at 1 µM [26] of the same molecule?
Answer: Its remaining activity at 1 µM is 100%.

Question: What about the remaining activity at 1 µM [27] of the same molecule?
Answer: Its remaining activity at 1 µM is 96.6%.

Question: What about the remaining activity at 1 µM [28] of the same molecule?
Answer: The remaining activity at 1 µM was 92.5%.

Question: And the remaining activity at 1 µM [29]?
Answer: Its remaining activity at 1 µM is 98.9%.

Question: And the remaining activity at 1 µM [30]?
Answer: Its remaining activity at 1 µM is 96.5%.

Question: And the remaining activity at 1 µM [31]?
Answer: The remaining activity at 1 µM was 114%.

Question: What about the remaining activity at 1 µM [32] of the same molecule?
Answer: Its remaining activity at 1 µM is 102%.

Question: And the remaining activity at 1 µM [33]?
Answer: Its remaining activity at 1 µM is 102%.

Question: And the remaining activity at 1 µM [34]?
Answer: The remaining activity at 1 µM was 104%.

Question: What about the remaining activity at 1 µM [35] of the same molecule?
Answer: The remaining activity at 1 µM was 54.3%.

Question: What about the remaining activity at 1 µM [36] of the same molecule?
Answer: Its remaining activity at 1 µM is 109%.
